Tests used:
[1] = molecular target: Histone-lysine N-methyltransferase EZH2 (Homo sapiens, UniProt Q15910, Y641F)
[2] = molecular target: T1, Histone-lysine N-methyltransferase EZH2 (Homo sapiens, UniProt Q15910)
WSUDLCL2 = experiment: cells; type: functional, cell-based; conditions: Homo sapiens
[3] = molecular target: Histone-lysine N-methyltransferase EZH2 (Homo sapiens, UniProt Q15910, Y641N)
[4] = molecular target: T2, Histone-lysine N-methyltransferase EZH1 (Homo sapiens, UniProt Q92800)
T2 sequence (Q92800 whole entry): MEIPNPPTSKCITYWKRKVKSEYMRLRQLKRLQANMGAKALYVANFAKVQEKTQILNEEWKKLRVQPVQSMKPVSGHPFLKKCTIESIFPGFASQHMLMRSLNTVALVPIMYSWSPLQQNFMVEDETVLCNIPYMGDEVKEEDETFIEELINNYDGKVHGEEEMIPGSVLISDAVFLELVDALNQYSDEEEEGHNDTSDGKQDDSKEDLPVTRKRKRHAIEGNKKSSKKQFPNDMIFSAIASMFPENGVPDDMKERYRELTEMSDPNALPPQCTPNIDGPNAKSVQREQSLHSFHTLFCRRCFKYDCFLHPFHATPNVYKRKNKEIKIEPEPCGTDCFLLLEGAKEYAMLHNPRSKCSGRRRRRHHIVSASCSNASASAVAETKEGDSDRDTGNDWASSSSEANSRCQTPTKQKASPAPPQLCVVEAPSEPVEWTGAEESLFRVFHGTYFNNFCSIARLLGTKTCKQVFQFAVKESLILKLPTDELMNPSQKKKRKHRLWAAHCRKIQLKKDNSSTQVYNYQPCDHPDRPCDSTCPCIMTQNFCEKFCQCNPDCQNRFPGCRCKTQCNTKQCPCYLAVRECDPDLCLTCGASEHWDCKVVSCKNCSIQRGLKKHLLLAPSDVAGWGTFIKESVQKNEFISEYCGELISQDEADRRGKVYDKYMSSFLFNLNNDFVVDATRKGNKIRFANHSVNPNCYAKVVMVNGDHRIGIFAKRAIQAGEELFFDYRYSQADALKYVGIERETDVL

The chains behind the UniProt entries cited, without tags or fusion partners.
UniProt Q15910, whole entry Y641F: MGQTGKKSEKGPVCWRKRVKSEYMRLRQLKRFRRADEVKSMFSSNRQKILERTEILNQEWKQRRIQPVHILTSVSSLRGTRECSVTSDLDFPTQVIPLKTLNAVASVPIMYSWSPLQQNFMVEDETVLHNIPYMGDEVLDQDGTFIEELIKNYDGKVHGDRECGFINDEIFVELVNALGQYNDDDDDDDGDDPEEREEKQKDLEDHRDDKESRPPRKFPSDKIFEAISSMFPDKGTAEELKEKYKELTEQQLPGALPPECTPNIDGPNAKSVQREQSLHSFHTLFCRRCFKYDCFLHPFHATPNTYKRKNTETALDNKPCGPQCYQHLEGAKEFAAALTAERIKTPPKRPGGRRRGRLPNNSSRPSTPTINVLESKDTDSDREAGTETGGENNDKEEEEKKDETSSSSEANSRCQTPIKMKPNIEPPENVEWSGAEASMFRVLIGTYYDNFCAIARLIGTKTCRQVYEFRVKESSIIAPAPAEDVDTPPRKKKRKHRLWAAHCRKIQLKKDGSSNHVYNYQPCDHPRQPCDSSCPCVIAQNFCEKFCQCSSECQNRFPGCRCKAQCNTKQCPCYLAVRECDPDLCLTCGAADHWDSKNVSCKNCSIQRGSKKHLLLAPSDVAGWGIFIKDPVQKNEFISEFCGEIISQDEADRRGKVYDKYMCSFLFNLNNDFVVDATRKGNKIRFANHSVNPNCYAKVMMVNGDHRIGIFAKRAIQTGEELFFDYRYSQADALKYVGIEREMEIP
UniProt Q15910, whole entry: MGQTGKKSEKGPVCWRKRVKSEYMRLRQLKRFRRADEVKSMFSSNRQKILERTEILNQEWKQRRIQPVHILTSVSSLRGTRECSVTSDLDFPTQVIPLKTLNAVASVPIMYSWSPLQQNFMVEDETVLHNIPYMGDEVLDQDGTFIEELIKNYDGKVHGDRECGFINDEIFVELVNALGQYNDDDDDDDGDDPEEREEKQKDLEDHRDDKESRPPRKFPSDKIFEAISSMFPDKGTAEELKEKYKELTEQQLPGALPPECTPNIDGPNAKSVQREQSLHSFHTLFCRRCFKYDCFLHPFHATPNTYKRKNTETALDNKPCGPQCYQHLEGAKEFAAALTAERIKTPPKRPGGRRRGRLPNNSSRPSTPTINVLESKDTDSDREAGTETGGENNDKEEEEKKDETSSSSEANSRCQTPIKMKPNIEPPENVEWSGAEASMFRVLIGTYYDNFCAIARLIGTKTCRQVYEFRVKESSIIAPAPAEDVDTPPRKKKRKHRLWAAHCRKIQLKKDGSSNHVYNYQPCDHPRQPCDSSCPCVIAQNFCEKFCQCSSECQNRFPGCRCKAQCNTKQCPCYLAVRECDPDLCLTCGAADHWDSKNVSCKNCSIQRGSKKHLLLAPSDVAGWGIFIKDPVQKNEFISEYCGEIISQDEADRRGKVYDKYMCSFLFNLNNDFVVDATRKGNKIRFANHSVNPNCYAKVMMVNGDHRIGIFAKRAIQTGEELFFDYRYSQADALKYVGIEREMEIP
UniProt Q15910, whole entry Y641N: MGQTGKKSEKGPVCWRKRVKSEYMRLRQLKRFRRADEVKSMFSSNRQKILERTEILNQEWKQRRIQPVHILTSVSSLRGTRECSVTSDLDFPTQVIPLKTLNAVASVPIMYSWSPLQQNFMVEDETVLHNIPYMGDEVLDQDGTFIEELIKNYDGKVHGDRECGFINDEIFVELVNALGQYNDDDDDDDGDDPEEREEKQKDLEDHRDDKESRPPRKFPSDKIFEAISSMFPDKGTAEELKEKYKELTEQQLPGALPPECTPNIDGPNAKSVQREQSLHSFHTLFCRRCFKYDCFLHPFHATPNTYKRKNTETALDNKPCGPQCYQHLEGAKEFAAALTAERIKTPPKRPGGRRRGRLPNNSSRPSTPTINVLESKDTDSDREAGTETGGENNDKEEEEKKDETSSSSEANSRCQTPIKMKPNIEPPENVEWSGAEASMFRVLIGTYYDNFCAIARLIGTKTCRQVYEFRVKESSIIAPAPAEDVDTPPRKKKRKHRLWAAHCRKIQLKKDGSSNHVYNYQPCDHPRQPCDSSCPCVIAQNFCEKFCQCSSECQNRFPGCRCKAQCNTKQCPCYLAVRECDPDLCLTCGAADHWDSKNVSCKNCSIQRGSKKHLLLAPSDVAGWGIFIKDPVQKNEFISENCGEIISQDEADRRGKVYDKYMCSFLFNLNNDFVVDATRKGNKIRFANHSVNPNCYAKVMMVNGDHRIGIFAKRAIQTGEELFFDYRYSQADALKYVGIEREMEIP

Pfeiffer = experiment: cells; type: functional, cell-based; conditions: Homo sapiens
cells = type: cell-based; conditions: Homo sapiens, HCT-116
[5] = molecular target: T1, Histone-lysine N-methyltransferase EZH2; remark: listed apart in the source

CCN(c1cc(C#CCN2CCOCC2)cc(C(=O)NCc2c(C)cc(C)[nH]c2=O)c1C)[C@H]1CC[C@H](N(C)CCOC)CC1
IC50 [1]: 0.015 µM | Ki [2]: < 0.003 µM

CCN(c1cc(C#CC2CCN(C)CC2)cc(C(=O)NCc2c(C)cc(C)[nH]c2=O)c1C)C1CCOCC1
IC50 (WSUDLCL2): 0.325 µM

C=CCC1(S(=O)(=O)n2ccc3c(C(=O)NCc4c(C)cc(C)[nH]c4=O)cc(-c4ccc(N5CCN(C)CC5)nc4)cc32)CC1
IC50 [3]: 870 µM

Cc1cc(C)c(CN2CCc3c(Br)c4c(c(C)c3C2=O)OC(C)([C@H]2CC[C@H](N(C)C)CC2)O4)c(=O)[nH]1 (stereo partly specified)
IC50 [4]: 0.007 µM

CCN(c1cc(-c2ccc(OCCOC)cc2)cc(C(=O)NCc2c(C)cc(C)[nH]c2=O)c1C)C1CCC(N(C)C)CC1 (stereo unspecified)
IC50 [1]: < 0.005 µM

CCN(c1cc(-c2ccc3c(c2)C(N2CCOCC2)CC3)cc(C(=O)NCc2c(OC)cc(C)[nH]c2=O)c1C)C1CCOCC1 (stereo unspecified)
IC50 (Pfeiffer): 0.00103 µM | IC50 (WSUDLCL2): 0.00226 µM

CCN(c1cc(-c2ccc(CN3CCN(C)CC3)nc2)cc2c(NCc3c(C)cc(C)[nH]c3=O)nccc12)[C@H]1CC[C@H](N(C)C)CC1
IC50 (Pfeiffer): 0.383 µM

CCN1CCN(c2ccc(-c3cc(C(=O)NCc4c(C)cc(C)[nH]c4=O)c(C)c4c3O[C@](C)(CN3CCOCC3)O4)cn2)CC1
IC50 (cells): 0.024 µM

CCN(c1cc(Cl)cc(C(=O)NCc2c(CCN(C)C)cc3n(c2=O)NCC3)c1C)[C@H]1CC[C@H](N(C)C)CC1
IC50 [5]: 0.75 µM

— ChEMBL document CHEMBL5120864, “Targeting Enhancer of Zeste Homolog 2 for the Treatment of Hematological Malignancies and Solid Tumors: Candidate Structure-Activity Relationships Insights and Evolution Prospects” (J Med Chem, 2022)
